Results on one substance are retold here after patent US20200140841A1.

The assay concerns the target debrilase (Lucilia sericata). Description: cell-based or functional assay.

The substance “aprotinin from bovine lung (Sigma Aldrich) (from UniProt P00974 36-93)” had a half maximal inhibitory concentration (IC50) of debrilase activity (residual activity on Z-Gly-Gly-Arg-AMC, fluorometric, PBS pH 8, 37° C.) of 0.076 µM.
